Data reported in paper PMC2728155 (Molecular cancer therapeutics, 2009).

Test system: phospho-VEGF-receptor and PARP in ACHN cells
Experiment: Immunoblot of phospho-VEGF-receptor and PARP cleavage
Format: cell-based, human
Conditions: 10 μM, 24 and 48 h

## CNC(=O)c1cc(Oc2ccc(NC(=O)Nc3ccc(Cl)c(C(F)(F)F)c3)cc2)ccn1 [Sorafenib]
  Apoptosis by PARP cleavage: causes apoptosis as is evidenced by PARP cleavage
  Phospho-VEGF-receptor: attenuates phospho-VEGF
